Amino acid sequences for entries named in this document (tags omitted). Residues count along the entry.
UniProt P20272, whole entry: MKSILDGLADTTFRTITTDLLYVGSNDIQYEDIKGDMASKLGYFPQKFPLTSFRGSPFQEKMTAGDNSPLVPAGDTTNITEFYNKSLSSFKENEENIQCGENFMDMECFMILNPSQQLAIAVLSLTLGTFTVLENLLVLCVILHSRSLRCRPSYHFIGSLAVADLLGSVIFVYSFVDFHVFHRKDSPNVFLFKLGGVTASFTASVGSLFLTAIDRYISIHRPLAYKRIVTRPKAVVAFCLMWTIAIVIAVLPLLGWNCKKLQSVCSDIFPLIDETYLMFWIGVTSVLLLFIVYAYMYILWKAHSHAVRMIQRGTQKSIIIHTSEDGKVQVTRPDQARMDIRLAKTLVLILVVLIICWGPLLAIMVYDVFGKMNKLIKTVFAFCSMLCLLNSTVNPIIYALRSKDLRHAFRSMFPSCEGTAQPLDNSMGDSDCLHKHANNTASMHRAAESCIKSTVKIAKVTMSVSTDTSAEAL
UniProt P20272, 1-464 limits assumed: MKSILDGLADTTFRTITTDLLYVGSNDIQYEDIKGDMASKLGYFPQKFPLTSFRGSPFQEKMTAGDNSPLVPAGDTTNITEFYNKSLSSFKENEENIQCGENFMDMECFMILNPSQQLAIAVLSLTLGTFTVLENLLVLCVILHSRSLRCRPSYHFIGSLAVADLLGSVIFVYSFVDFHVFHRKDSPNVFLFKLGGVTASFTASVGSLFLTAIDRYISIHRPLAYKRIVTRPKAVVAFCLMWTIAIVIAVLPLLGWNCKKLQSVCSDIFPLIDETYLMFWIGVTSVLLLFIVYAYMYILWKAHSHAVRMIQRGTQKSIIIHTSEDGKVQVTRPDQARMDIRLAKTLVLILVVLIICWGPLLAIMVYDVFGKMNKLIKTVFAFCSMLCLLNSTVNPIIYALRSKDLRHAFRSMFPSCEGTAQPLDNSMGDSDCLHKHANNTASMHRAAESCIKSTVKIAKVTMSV

In US20050095674A1, “Cannabinoid receptor interacting proteins and methods of use” (priority 2003, published 2005):

Key:
CB1 receptors = CB1 receptors (Rattus norvegicus, UniProt P20272); details: SCG neurons expressing CB1 receptors (Pan et al., 1998); cited from earlier work
[1] = biological target: T1, CB1-464 truncated receptor (Rattus norvegicus, UniProt P20272); experiment: Whole-cell patch clamp of Ca2+ currents in SCG neurons expressing the CB1-464 truncated receptor; type: cell-based
T1 construct: expressed in transfected cells

Structure (SMILES): Cc1c(C(=O)NN2CCCCC2)nn(-c2ccc(Cl)cc2Cl)c1-c1ccc(Cl)cc1 [SR141716]
- effect on voltage-gated Ca2+ current (CB1 receptors): increases the voltage-gated Ca^2+ current
- SR141716 induced Ca2+ current increase, truncated receptor compared to wild type receptor [1]: not significantly altered
